Results from patent US20240327364A1, “THERAPEUTIC TARGETING OF GPR68 TO INDUCE FERROPTOSIS” (University Of Maryland, Baltimore, priority 2023, published 2024).

By UniProt entry, the sequences of proteins in these tests, tags left out.
UniProt Q15743, whole entry: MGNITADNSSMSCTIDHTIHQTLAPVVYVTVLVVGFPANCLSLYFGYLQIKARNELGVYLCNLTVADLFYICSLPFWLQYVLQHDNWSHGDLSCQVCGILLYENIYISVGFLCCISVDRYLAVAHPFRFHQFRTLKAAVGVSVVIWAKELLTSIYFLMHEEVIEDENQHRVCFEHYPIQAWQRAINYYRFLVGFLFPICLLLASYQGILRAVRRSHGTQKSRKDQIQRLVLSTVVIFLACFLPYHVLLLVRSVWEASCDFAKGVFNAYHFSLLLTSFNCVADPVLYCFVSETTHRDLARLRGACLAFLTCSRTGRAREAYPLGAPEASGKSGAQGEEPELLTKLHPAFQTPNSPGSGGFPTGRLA

Molecular target: GPR68/OGR1 (Homo sapiens, UniProt Q15743)
Assay: CHEM1-OGR1 cells Fluo-8 calcium assay, acidified media pH 6.4
Conditions: read-out: GPR68; Table 5
Procedure: Briefly, the methods were: On the day before the assay 20,000 cells per well of CHEM1-OGR1 cells were plated in 10% DMEM containing 10% FBS and 1% Pen/Strep into a 96 well plate. After 24 hours media was removed and cells were stained with 80 μL Fluo-8 calcium indicator dye according to manufacturer's protocol. After staining cells were treated with 20 uL of 4× concentration of test compounds. Using kinetic imaging in the Lionheart HCS fluorescence intensity was continuously measure at 10 frames per second, for 5 seconds before 100 μL of acidified media was added to the well resulting in a pH of 6.4. A ratio of fluorescence intensities prior to addition and at peak were calculated and averaged. The resulting data were platted and using a 4 parameter logistic regression EC50 (the concentration causing 50% effective inhibition) for each test compound was determined.

EC50: 0.81 µM
Structure (SMILES): CN1C(=O)C2(NN=C(c3ccccc3)S2)c2ccccc21 (stereo not shown)
